Assay results from patent US20060121042A1 (AstraZeneca / MedImmune, published 2006).

The chains behind the UniProt entries cited, without tags or fusion partners. Residues count along the entry.
UniProt P29317, 25-534 limits assumed: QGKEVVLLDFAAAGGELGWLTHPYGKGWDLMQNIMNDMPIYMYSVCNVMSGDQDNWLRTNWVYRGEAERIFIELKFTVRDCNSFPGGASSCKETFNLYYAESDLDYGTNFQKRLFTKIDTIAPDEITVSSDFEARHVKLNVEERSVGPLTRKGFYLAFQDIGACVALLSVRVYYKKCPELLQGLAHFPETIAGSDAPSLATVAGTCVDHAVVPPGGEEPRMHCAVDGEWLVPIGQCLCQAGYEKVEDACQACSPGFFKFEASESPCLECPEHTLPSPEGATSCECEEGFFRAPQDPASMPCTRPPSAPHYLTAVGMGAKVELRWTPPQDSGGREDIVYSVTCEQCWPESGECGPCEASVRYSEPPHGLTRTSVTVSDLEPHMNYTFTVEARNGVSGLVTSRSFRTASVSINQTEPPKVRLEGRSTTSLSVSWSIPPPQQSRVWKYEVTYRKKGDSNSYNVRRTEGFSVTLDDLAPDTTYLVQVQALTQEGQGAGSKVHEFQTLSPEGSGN
UniProt Q03145, 26-535 limits assumed: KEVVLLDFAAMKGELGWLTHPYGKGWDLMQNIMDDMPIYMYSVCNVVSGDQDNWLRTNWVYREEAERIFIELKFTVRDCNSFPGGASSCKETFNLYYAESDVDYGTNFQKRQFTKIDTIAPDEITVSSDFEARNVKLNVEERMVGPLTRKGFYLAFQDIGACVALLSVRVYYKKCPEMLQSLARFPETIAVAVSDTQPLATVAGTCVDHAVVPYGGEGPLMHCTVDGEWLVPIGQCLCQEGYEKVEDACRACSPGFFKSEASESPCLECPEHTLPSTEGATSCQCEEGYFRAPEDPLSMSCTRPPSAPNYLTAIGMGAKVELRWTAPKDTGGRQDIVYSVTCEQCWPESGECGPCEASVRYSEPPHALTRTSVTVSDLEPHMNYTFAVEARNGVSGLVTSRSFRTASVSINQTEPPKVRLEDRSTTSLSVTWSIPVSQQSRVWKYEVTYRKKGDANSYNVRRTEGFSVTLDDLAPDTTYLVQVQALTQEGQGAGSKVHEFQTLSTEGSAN

Experiments:
hEphA2 = biological target: T1, hEphA2 (human, UniProt P29317); assay: ELISA
T1 construct: also called human EphA2

mEph A2 = mEph A2 (mouse, UniProt Q03145); assay: ELISA
Further: test concentration or dose not given here.

ELISA O.D. value (hEphA2): 0.146 | ELISA O.D. value (mEph A2): 0.045
B1: 1C1 (antibody, V domains shown)
VH: EVQLLESGGGLVQPGGSLRLSCAASGFTFSHYMMAWVRQAPGKGLEWVSRIGPSGGPTHYADSVKGRFTISRDNSKNTLYLQMNSLRAEDTAVYYCAGYDSGYDYVAVAGPAEYFQHWGQGTLVTVSS
VL: DIQMTQSPSSLSASVGDRVTITCRASQSISTWLAWYQQKPGKAPKLLIYKASNLHTGVPSRFSGSGSGTEFSLTISGLQPDDFATYYCQQYNSYSRTFGQGTKVEIK
